Earlier results as cited in patent US8067243B2 (priority 2008, dated 2011).
Only a part of the results on these compounds is given; other tests are left out.

Experiments:
[1] = single fentanyl dose (50 to 100 ug); cited from earlier work
[2] = fentanyl transdermal patches (25 to 100 ug/hr); cited from earlier work

SMILES: CCC(=O)N(c1ccccc1)C1CCN(CCc2ccccc2)CC1
- detection in urine following a single fentanyl dose [1]: less than 24 hours
- urine concentration in chronic pain patients [2]: less than 1080 ng/mL
